Values quoted from earlier work in patent publication US10149644B2, “Curcumin derivatives for amyloid-β plaque imaging” (The General Hospital Corporation, priority 2008, dated 2018).

Amino acid sequences for entries named in this document (tags omitted). Residues count along the entry.
UniProt P05067, 672-711 limits assumed: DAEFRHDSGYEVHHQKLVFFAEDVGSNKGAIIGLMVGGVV

Molecular target: T1, Aβ40 aggregates (Homo sapiens, UniProt P05067)
T1 construct: Synthetic amyloid-b protein (1-40) was purchased from rPeptide; purchased rPeptide (Bogart, Ga.)
Conditions: reported values used for comparison; read-out: Kd towards Aβ aggregates (literature); cited from earlier work

In the case of `Cc1ccc2c(c1)sc(-c1ccc(N(C)C)cc1)[n+]2C.[Cl-]` [Thioflavin T], the Kd is listed as 580 nM.
